Assay results reported in ChEMBL document CHEMBL1132079, “Combined NK1 and NK2 tachykinin receptor antagonists: synthesis and structure-activity relationships of novel oxazolidine analogues” (Bioorg Med Chem Lett, 1999).

The chains behind the UniProt entries cited, without tags or fusion partners.
UniProt Q64077, whole entry, looked up: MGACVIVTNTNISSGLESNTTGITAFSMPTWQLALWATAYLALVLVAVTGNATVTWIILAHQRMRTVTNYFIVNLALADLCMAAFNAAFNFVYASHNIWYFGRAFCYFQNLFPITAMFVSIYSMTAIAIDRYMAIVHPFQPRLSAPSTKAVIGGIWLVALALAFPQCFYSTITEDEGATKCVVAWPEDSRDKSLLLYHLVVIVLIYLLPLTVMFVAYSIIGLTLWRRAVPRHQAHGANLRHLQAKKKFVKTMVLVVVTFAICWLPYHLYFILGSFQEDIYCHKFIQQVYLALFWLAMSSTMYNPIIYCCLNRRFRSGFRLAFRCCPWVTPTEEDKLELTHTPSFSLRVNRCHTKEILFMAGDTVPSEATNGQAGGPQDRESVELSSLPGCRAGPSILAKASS

Biological target: Substance-K receptor (Cavia porcellus, UniProt Q64077)
Experiment: Inhibitory activity against Neurokinin 2 (NK2) receptor from guinea pig ileum
Format: tissue-based

COc1cc(C(=O)N2CO[C@](CCN3CCC4(CC3)C(=O)NCN4c3ccccc3)(c3ccc(Cl)c(Cl)c3)C2)cc(OC)c1OC
IC50: 239 nM
